As a reminder, the IC50 is the concentration that inhibits the measured activity by half.

Amino acid sequences for entries named in this document (tags omitted).
UniProt P21397, whole entry: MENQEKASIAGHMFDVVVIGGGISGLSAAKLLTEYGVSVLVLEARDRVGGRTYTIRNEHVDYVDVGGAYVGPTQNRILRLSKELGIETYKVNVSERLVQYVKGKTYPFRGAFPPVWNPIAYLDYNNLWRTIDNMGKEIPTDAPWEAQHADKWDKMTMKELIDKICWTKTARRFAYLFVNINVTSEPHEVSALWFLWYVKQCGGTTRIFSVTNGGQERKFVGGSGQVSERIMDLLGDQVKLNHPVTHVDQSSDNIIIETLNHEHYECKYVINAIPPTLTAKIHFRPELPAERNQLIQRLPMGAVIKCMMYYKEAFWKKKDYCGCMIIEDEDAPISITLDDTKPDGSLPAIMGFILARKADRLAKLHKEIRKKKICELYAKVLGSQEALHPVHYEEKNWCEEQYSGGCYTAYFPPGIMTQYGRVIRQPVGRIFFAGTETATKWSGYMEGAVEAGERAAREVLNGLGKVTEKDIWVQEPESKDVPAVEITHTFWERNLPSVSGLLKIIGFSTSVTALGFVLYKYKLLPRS

The results in this text go back to ChEMBL document CHEMBL4811301, “Synthesis and biological evaluation of 3-styrylchromone derivatives as selective monoamine oxidase B inhibitors” (Bioorg Med Chem, 2021).

The assay has as its target Amine oxidase [flavin-containing] A (Homo sapiens, UniProt P21397). Kind of assay: Inhibition of human recombinant MAO-A […] as incubated for 20 mins measuring increase in emission signal at 310 nm multimode plate reader assay.

`C#CCN(C)Cc1ccccc1` [PARGYLINE]: the IC50 was 4.6 µM.
